Measurements: BindingDB's records for doi:10.1021/jm100669j (Pfizer, 2010)

Biological target: T1, Interstitial collagenase (Homo sapiens, UniProt P03956)
T1 sequence (P03956 whole entry): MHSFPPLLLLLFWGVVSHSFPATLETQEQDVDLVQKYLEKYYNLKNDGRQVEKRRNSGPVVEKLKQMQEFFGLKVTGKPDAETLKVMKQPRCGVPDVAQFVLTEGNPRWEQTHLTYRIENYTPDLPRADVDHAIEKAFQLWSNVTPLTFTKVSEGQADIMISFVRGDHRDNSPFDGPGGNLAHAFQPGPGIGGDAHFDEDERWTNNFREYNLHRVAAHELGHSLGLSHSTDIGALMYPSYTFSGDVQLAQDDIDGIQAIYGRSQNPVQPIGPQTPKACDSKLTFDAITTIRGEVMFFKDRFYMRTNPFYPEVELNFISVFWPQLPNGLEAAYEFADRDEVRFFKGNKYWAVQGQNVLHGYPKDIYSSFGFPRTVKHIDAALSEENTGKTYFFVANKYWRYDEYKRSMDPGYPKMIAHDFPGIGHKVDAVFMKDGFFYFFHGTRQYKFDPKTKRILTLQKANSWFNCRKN

Q: Which IC50 does the source give for `O=C(NO)C1(S(=O)(=O)c2ccc(Oc3ccc(C(F)(F)F)cc3)cc2)CCN(C2CC2)CC1` here?
A: The IC50 was > 10 µM.
